Data taken from ChEMBL document CHEMBL1153880, “Synthesis and adrenolytic activity of 1-(1H-indol-4-yloxy)-3-{[2-(2-methoxyphenoxy)ethyl]amino}propan-2-ol and its enantiomers. Part 1” (Eur J Med Chem, 2009).

Key:
Rattus norvegicus [1] = assay: Effect on electrocardiogram in anaesthetized Wistar rat assessed as change in QRS interval at 1 mg/kg, iv after 1 min by electrocardiography; format: functional
Rattus norvegicus [2] = assay: Effect on electrocardiogram in anaesthetized Wistar rat assessed as change in QRS interval at 1 mg/kg, iv after 15 mins by electrocardiography; format: functional

SMILES: COc1ccccc1OCCNCC(O)COc1cccc2[nH]c3ccccc3c12 (configuration not stated) [CARVEDILOL]
- Activity (Rattus norvegicus [1]): 22 ms
- Activity (Rattus norvegicus [2]): 23.2 ms
